# Properties, as collected for the OPERA models

Values as listed in the OPERA 2.9 repository of K. Mansouri.

Melting points are in °C. The boiling point refers to atmospheric pressure (760 mmHg), by the definition of the set. logP is the log10 of the octanol-water partition coefficient; higher is more lipophilic. Water solubility is log10 of mol/L, nominally at 25 °C; higher is more soluble. Vapor pressure is log10 of mmHg; the set covers 15 to 30 °C, mostly 20 to 25 °C. The unbound fraction in human plasma runs from 0 (all bound) to 1 (all free). Clint is human hepatic intrinsic clearance in µL/min per million cells; 0 means that no clearance was seen. Cells with "–" have no entry in this list.

Listed for COc1cc2c(cc1OC)CC(=O)N(CCC1OCCO1)C=C2: mp 139 °C and log Kow 1.64 and log S -3.051 (log10 mol/L) and log VP -5.084 (log10 mmHg).
Listed for CN(C)CCOCCN(C)CCO [2-[{2-[2-(Dimethylamino)ethoxy]ethyl}(methyl)amino]ethanol]: mp -53 °C and log Kow -0.515 and log VP -1.046 (log10 mmHg).
Listed for [Mn+3].[O-]c1ccccc1/C=N/CCN(CC/N=C/c1ccccc1[O-])CC/N=C/c1ccccc1[O-]: mp 110 °C and log VP -13.65 (log10 mmHg).
Listed for CCCCCN(CCCCC)C(=S)[S-].CCCCCN(CCCCC)C(=S)[S-].[Zn+2] [Zinc bis(N,N-dipentyldithiocarbamate)]: mp 10.43 °C and log S -6.79 (log10 mol/L) and log VP -12.33 (log10 mmHg).
Listed for Nc1cc(Cl)c(Cl)cc1S(=O)(=O)O [Benzenesulfonic acid, 2-amino-4,5-dichloro-]: log Kow -1 and log S -2.105 (log10 mol/L).
Listed for CCCCC(CC)COC(=O)CC(O)C(=O)OCC(CC)CCCC (configuration not stated) [Bis(2-ethylhexyl) 2-hydroxybutanedioate]: mp -80.15 °C and log S -6.212 (log10 mol/L) and log VP -6.124 (log10 mmHg).
Listed for C=CCCCCCCCCC(C)CCCCCCCC (configuration not stated) [1-Decene, dimer]: mp -73 °C and log VP -1.849 (log10 mmHg).
Listed for CCOCCn1c(N2CCCN(C)CC2)nc2ccccc21 [Emedastine]: log Kow 2.6 and log S -2.322 (log10 mol/L).
Listed for CCCCCCCCCCCCN1CCCC1=O [1-Dodecyl-2-pyrrolidinone]: mp -4 °C and log VP -4.815 (log10 mmHg).
Listed for CCCCCC(=Cc1ccccc1)C(OCC)OCC [2-Diethoxymethyl-1-phenylhept-1-ene]: log S -5.172 (log10 mol/L) and log VP -4.134 (log10 mmHg).
Listed for O=C(O)c1cc(C(=O)O)cc([N+](=O)[O-])c1 [5-Nitroisophthalic acid]: log Kow 1.1 and log S -2.178 (log10 mol/L).
Listed for CCCCOc1cccc(F)c1F [1-Butoxy-2,3-Difluorobenzene]: mp -4.5 °C and log Kow 4 and log S -4.823 (log10 mol/L) and log VP -0.833 (log10 mmHg).
Listed for O=[N+]([O-])c1ccc(N=Nc2c(O)ccc3ccccc23)c(Cl)c1 [D&C Red No. 36]: log Kow 3.45 and log S -7.997 (log10 mol/L).
Listed for CCN[C@@H]1C[C@H](N)[C@@H](O[C@H]2OC(CN)=CC[C@H]2N)[C@H](O)[C@H]1O[C@H]1OC[C@](C)(O)[C@H](NC)[C@H]1O [Netilmicin]: log Kow -3 and log S -1.751 (log10 mol/L).
Listed for C=CC(C)(CCC=C(C)C)OC(=O)N(C)C (configuration not stated): mp -50.15 °C and log Kow 4.3 and log S -3.527 (log10 mol/L) and log VP -2.064 (log10 mmHg).
Listed for COc1ccc(CCNCC(O)COc2cccc(C)c2)cc1OC (configuration not stated) [Bevantolol]: log S -4.402 (log10 mol/L) and plasma fu 0.02264.
Listed for CC1COC(C)(CCC(=O)OCCCCOC(=O)CCC2(C)OCC(C)O2)O1 (configuration not stated): log Kow 1.9 and log S -1.978 (log10 mol/L).
Listed for Clc1ccccc1-c1cccc2c1-c1ccccc1C2(c1ccccc1)c1ccccc1 [4-(2-Chlorophenyl)-9,9-diphenyl-9H-fluorene]: mp 213.4 °C and bp 480 °C and log S -7.553 (log10 mol/L).
Listed for CC(C)(Br)CBr [Propane, 1,2-dibromo-2-methyl-]: mp 10.5 °C and log VP 1.289 (log10 mmHg).
Listed for O=P(O)(C(F)(F)C(F)(F)C(F)(F)C(F)(F)F)C(F)(F)C(F)(F)C(F)(F)C(F)(F)F [Bis(nonafluorobutyl)phosphinic acid]: log Kow 4 and log VP -4.962 (log10 mmHg).
Listed for Cc1oc(-c2ccccc2)nc1CCOc1cccc2c1ccn2CCC(=O)O: plasma fu 0.00409 and intrinsic clearance 3.4 µL/min/10^6 cells.
Listed for C=CC(=O)OCCCCCC [Hexyl acrylate]: bp 188 °C and log VP -0.014 (log10 mmHg).
Listed for CC(C)(C)c1ccc([I+]c2ccc(C(C)(C)C)cc2)cc1.F[P-](F)(F)(F)(F)F [Bis(4-tert-butylphenyl)iodanium hexafluorophosphate]: log Kow 1.38 and log S -3.292 (log10 mol/L) and log VP -5.71 (log10 mmHg).
Listed for CCCCOc1ccc(C2=CCC([C@H]3CC[C@H](CC)CC3)CC2)c(F)c1F (stereo partly specified): mp 49.8 °C and log S -6.673 (log10 mol/L) and log VP -8.377 (log10 mmHg).
Listed for C=CC(=O)OCC(C)OCC(C)OCC(C)OC(=O)C=C (configuration not stated) [Tripropylene glycol diacrylate]: log Kow 2.05 and log S -1.876 (log10 mol/L) and log VP -4.481 (log10 mmHg).
Listed for CC(C)(C)OC(=O)N[C@@H](C(=O)N1[C@@H]2C[C@@H]2C[C@@H]1C#N)C12CC3CC(CC(O)(C3)C1)C2: mp 175.8 °C and log S -2.682 (log10 mol/L).
Listed for Nc1ccc2[nH]c(=O)[nH]c2c1 [2H-Benzimidazol-2-one, 5-amino-1,3-dihydro-]: mp 207 °C and log Kow -0.33 and log S -2.335 (log10 mol/L).

Extract of 5 entries:

| structure (SMILES) | name | mp (°C) | bp (°C) | log Kow | log S (log10 mol/L) | log VP (log10 mmHg) | plasma fu | intrinsic clearance (µL/min/10^6 cells) |
|---|---|---|---|---|---|---|---|---|
| CCN[C@@H]1C[C@H](N)[C@@H](O[C@H]2OC(CN)=CC[C@H]2N)[C@H](O)[C@H]1O[C@H]1OC[C@](C)(O)[C@H](NC)[C@H]1O | Netilmicin | – | – | -3 | -1.751 | – | – | – |
| CCOCCn1c(N2CCCN(C)CC2)nc2ccccc21 | Emedastine | – | – | 2.6 | -2.322 | – | – | – |
| CC(C)(Br)CBr | Propane, 1,2-dibromo-2-methyl- | 10.5 | – | – | – | 1.289 | – | – |
| CCCCC(CC)COC(=O)CC(O)C(=O)OCC(CC)CCCC (configuration not stated) | Bis(2-ethylhexyl) 2-hydroxybutanedioate | -80.15 | – | – | -6.212 | -6.124 | – | – |
| CCCCCN(CCCCC)C(=S)[S-].CCCCCN(CCCCC)C(=S)[S-].[Zn+2] | Zinc bis(N,N-dipentyldithiocarbamate) | 10.43 | – | – | -6.79 | -12.33 | – | – |

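OPERA's authors assembled the values from existing databases and did not measure them anew. One number stands for a compound and property, with no spread given. Conditions of the individual experiments are not part of the data. The measured form (salt, isomer or mixture) is not always the one drawn. Some entries may be limits or estimates that an upstream database listed as plain numbers.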